For this assay, the system named is TNFα. In words: Cot Monocyte TNFα Cell Based Assay.
Where [1] appears, read: Homo sapiens, Monocyte, read-out: EC50 TNF, LPS-stimulated human monocytes, TNFα.
The mark [2] stands for this setting: read-out: EC50 TNF, LPS-stimulated human monocytes, TNFα.
Setting [3] is: Homo sapiens, Monocyte, read-out: EC50 TNF, LPS-stimulated human monocytes, TNFα TR-FRET.

The values that follow come from patent publication US11066414B2, “Cot modulators and methods of use thereof” (Gilead Sciences, Inc., priority 2015, dated 2021).

Molecules are shown by their SMILES. Like-named read-outs stand apart in the source and are kept apart here.

For the molecule `Cc1nc(F)ccc1[C@H](Nc1cc(F)c2ncc(C#N)c(NCC(C)(C)C)c2c1)c1cn(C2(C(F)F)CC2)nn1` [Example 514, (S)-6-(((1-(1-(difluoromethyl)cyclopropyl)-1H-1,2,3-triazol-4-yl)(6-fluoro-2-methylpyridin-3-yl)methyl)amino)-8-fluoro-4-(neopentylamino)quinoline-3-carbonitrile], the EC50 under setting [1] was 77 nM. On to `Cc1nc(F)ccc1[C@H](Nc1cc(Cl)c2ncc(C#N)c(NCC(C)(C)C)c2c1)c1cn(C(F)(F)CO)nn1` [Example 584, (S)-8-chloro-6-(((1-(i, 1-difluoro-2-hydroxyethyl)-1H-1,2,3-triazol-4-yl)(6-fluoro-2-methylpyridin-3-yl)methyl)amino)-4-(neopentylamino)quinoline-3-carbonitrile], for which the EC50 under setting [2] was determined as 53 nM. Take `C[C@@H](CF)n1cc([C@@H](Nc2cc(Cl)c3ncc(C#N)c(NCC(C)(C)C)c3c2)c2cccc3ncccc23)nn1` [Example 803, 8-chloro-6-(((S)-(1-((S)-1-fluoropropan-2-yl)-1H-1,2,3-triazol-4-yl)(quinolin-5-yl)methyl)amino)-4-(neopentylamino)quinoline-3-carbonitrile]: the concentration for a half-maximal effect (EC50) under setting [3] was 97 nM. Still for that read-out and setting: under `Cc1nc(F)ccc1[C@H](Nc1cc(Cl)c2ncc(C#N)c(NCC(C)(C)C)c2c1)c1nnn(C2(C)CC2)c1F` [Example 947, (S)-8-chloro-6-(((5-fluoro-1-(1-methylcyclopropyl)-1H-1,2,3-triazol-4-yl)(6-fluoro-2-methyl-pyridin-3-yl)methyl)amino)-4-(neopentylamino)quinoline-3-carbonitrile] stands 39 nM. On to `CC(C)(C)CNc1c(C#N)cnc2c(Cl)cc(N[C@H](c3cn(C4(CO)CC4)nn3)c3cccc4ncsc34)cc12` [Example 458, (S)-6-((benzo[d]thiazol-7-yl(1-(1-(hydroxymethyl)cyclopropyl)-1H-1,2,3-triazol-4-yl)methyl)amino)-8-chloro-4-(neopentylamino)quinoline-3-carbonitrile], for which the half-maximal effective concentration (EC50) under setting [1] is 87 nM. On the same count and under the same terms, under `Cc1ncccc1[C@H](Nc1cc(Cl)c2ncc(C#N)c(Nc3ccc(F)c(Cl)c3)c2c1)c1cn(C(C)C)nn1` [Example 282, (S)-8-chloro-4-((3-chloro-4-fluorophenyl)amino)-6-(((1-isopropyl-1H-1,2,3-triazol-4-yl)(2-methylpyridin-3-yl)methyl)amino)-quinoline-3-carboni trile] stands 87 nM; under `CC(C)(C)CNc1c(C#N)cnc2c(C#N)cc(N[C@H](c3cn(C4(C(F)(F)F)CC4)nn3)c3cccc4ncsc34)cc12` [Example 66, (S)-6-((benzo[d]thiazol-7-yl(1-(1-(trifluoromethyl)cyclopropyl)-1H-1,2,3-triazol-4-yl)methyl)amino)-4-(neopentylamino)quinoline-3,8-dicarbonitrile], 53 nM. On the same count and under the same terms, under `CC(C)(C)CNc1c(C#N)cnc2c(C#N)cc(N[C@H](c3cn(C4(C(F)F)CC4)nn3)c3cccc4ncsc34)cc12` [Example 424, (S)-6-((benzo[d]thiazol-7-yl(1-(1-(difluoromethyl)cyclopropyl)-1H-1,2,3-triazol-4-yl)methyl)amino)-4-(neopentylamino)quinoline-3,8-dicarbonitrile] stands 37 nM; under `CC(C)(C)N1CCC(n2cc([C@@H](Nc3cc(Cl)c4ncc(C#N)c(NC5CCCCC5)c4c3)c3cccnc3)nn2)CC1` [Example 287, (S)-6-(((1-(1-(tert-butyl)piperidin-4-yl)-1H-1,2,3-triazol-4-yl)(pyridin-3-yl)methyl)amino)-8-chloro-4-(cyclohexylamino)quinoline-3-carbonitrile], 373 nM. With `COc1nccc2c([C@H](Nc3cc(C#N)c4ncc(C#N)c(NCC(C)(C)C)c4c3)c3cn(C4(C5CC5)CC4)nn3)cccc12` [Example 823, (S)-6-(((1-([1,1′-bi(cyclopropan)]-1-yl)-1H-1,2,3-triazol-4-yl)(1-methoxylsoquinolin-5-yl)methyl)amino)-4-(neopentylamino)quinoline-3,8-dicarbonitrile], where the note is “read-out: EC50 TNF, LPS-stimulated human monocytes, TNFα TR-FRET”, the EC50 is 53 nM. With `Cc1nc(F)ccc1[C@H](Nc1cc(Cl)c2ncc(C#N)c(NCC(C)(C)C)c2c1)c1nnn(C23CC(C2)C3)c1F` [Example 951, (S)-6-(((1-(bicyclo[1.1.1]pentan-1-yl)-5-fluoro-1H-1,2,3-triazol-4-yl)(6-fluoro-2-methylpyridin-3-yl)methyl)amino)-8-chloro-4-(neopentylamino)quinoline-3-carbonitrile], the concentration giving a half-maximal response (EC50) under setting [3] was determined as 61 nM. For `CC(C)(C)CNc1c(C#N)cnc2c(C#N)cc(N[C@H](c3cn(C4CC4)nn3)c3cccc4ncccc34)cc12` [Example 467, (S)-6-(((1-cyclopropyl-1H-1,2,3-triazol-4-yl)(quinolin-5-yl)methyl)amino)-4-(neopentylamino)quinoline-3,8-dicarbonitrile], the EC50 under setting [1] was found to be 47 nM.

With `CC(C)(C)CNc1c(C#N)cnc2c(C#N)cc(N[C@H](c3cn(C4(C(F)(F)F)CC4)nn3)c3csc4c3CCN(C3COC3)C4)cc12` [Example 429, (S)-4-(neopentylamino)-6-(((6-(oxetan-3-yl)-4,5,6,7-tetrahydrothieno[2,3-c]pyridin-3-yl)(1-(1-(trifluoromethyl)cyclopropyl)-1H-1,2,3-triazol-4-yl)methyl)amino)-quinoline-3,8-dicarbonitrile], under setting [1], the concentration giving a half-maximal response (EC50) is 56 nM.

Turning to `Cn1c(=O)ccc2c([C@H](Nc3cc(Cl)c4ncc(C#N)c(NCC(C)(C)C)c4c3)c3cn(C45CC(C4)C5)nn3)cccc21` [Example 786, (S)-6-(((1-(bicyclo[1.1.1]pentan-1-yl)-1H-1,2,3-triazol-4-yl)(1-methyl-2-oxo-1,2-dihydroquinolin-5-yl)methyl)amino)-8-chloro-4-(neopentylamino)quinoline-3-carbonitrile], the EC50 under setting [1] was 47 nM. As to `Cc1nc(F)ccc1[C@H](Nc1cc(C#N)c2ncc(C#N)c(NCC(C)(C)C)c2c1)c1nnn(C)c1F` [Example 906, (S)-6-(((5-fluoro-1-methyl-1H-1,2,3-triazol-4-yl)(6-fluoro-2-methylpyridin-3-yl)methyl)amino)-4-(neopentylamino)quinoline-3,8-dicarbonitrile], the half-maximal effective concentration (EC50) under setting [3] came to 39 nM. Turning to `CC(C)(C)CNc1c(C#N)cnc2c(Cl)cc(N[C@H](c3cn(C4(C)CC4)nn3)c3cccc4ncsc34)cc12` [Example 434, (S)-6-((benzo[d]thiazol-7-yl(1-(1-methylcyclopropyl)-1H-1,2,3-triazol-4-yl)methyl)amino)-8-chloro-4-(neopentylamino)quinoline-3-carbonitrile], the concentration giving a half-maximal response (EC50) under setting [1] amounted to 61 nM. With `CC(C)(C)CNc1c(C#N)cnc2c(C#N)cc(N[C@H](c3cn(C4(C5CC5)CC4)nn3)c3cccc4ncccc34)cc12` [Example 696], under setting [2], the EC50 came out at 14 nM. Consider `CCc1ncccc1[C@H](Nc1cc(Cl)c2ncc(C#N)c(NCC(C)(C)C)c2c1)c1cn(C2(C(F)F)CC2)nn1` [Example 604, (S)-8-chloro-6-(((1-(1-(difluoromethyl)cyclo-propyl)-1H-1,2,3-triazol-4-yl)(2-ethylpyridin-3-yl)methyl)amino)-4-(neopentylamino)-quinoline-3-carbonitrile], for which the concentration giving a half-maximal response (EC50) under setting [1] stood at 71 nM. Turning to `Cc1nc(F)ccc1[C@H](Nc1cc(C#N)c2ncc(C#N)c(NCC(C)(C)C)c2c1)c1cn(C(CF)CF)nn1` [Example 869, (S)-6-(((1-(1,3-difluoropropan-2-yl)-1H-1,2,3-triazol-4-yl)(6-fluoro-2-methylpyridin-3-yl)methyl)amino)-4-(neopentylamino)quinoline-3,8-dicarbonitrile], the concentration giving a half-maximal response (EC50) under setting [3] is 37 nM. `Cn1ccc2c([C@H](Nc3cc(Cl)c4ncc(C#N)c(NCC(C)(C)C)c4c3)c3cn(C4(C(F)(F)F)CC4)nn3)cccc2c1=O` [Example 618, (S)-8-chloro-6-(((2-methyl-1-oxo-1,2-dihydroisoquinolin-5-yl)(1-(1-(trifluoromethyl)cyclopropyl)-1H-1,2,3-triazol-4-yl)methyl)amino)-4-(neopentylamino)quinoline-3-carbonitrile]: the concentration for a half-maximal effect (EC50) under setting [1] stood at 37 nM. Turning to `CC(C)(CNc1c(C#N)cnc2c(C#N)cc(N[C@H](c3cn(C4(C(F)F)CC4)nn3)c3ccc(F)c4ncccc34)cc12)C(F)(F)F` [Example 815, (S)-6-(((1-{1-(difluoromethyl)-cyclopropyl)-1H-1,2,3-triazol-4-yl)(8-fluoroquinolin-5-yl)methyl)amino)-4-((3,3,3-trifluoro-2,2-dimethylpropyl)amino)quinoline-3,8-dicarbonitrile], the concentration giving a half-maximal response (EC50) under setting [3] turned out to be 39 nM. On to `Cn1ccc2c([C@H](Nc3cc(Cl)c4ncc(C#N)c(NCC(C)(C)C(F)(F)F)c4c3)c3cn(C4(C5CC5)CC4)nn3)cccc2c1=O` [Example 783, (S)-6-(((1-([1,1′-bi(cyclopropan)]-1-yl)-1H-1,2,3-triazol-4-yl)(2-methyl-1-oxo-1,2-dihydroisoquinolin-5-yl)methyl)amino)-8-chloro-4-((3,3,3-trifluoro-2,2-dimethylpropyl)amino)quinoline-3-carbonitrile], for which the 50% effective concentration (EC50) under setting [1] came to 23 nM.

For the molecule `Cc1nc(F)ccc1[C@H](Nc1cc(Cl)c2ncc(C#N)c(NCC(C)(C)C)c2c1)c1nnn(C2CC2)c1C#N` [Example 686, (S)-8-chloro-6-(((5-cyano-1-cyclopropyl-1H-1,2,3-triazol-4-yl)(6-fluoro-2-methylpyridin-3-yl)methyl)amino)-4-(neopentylamino)quinoline-3-carbonitrile], the EC50 under setting [1] came to 77 nM. Take `CC(C)(CNc1c(C#N)cnc2c(C#N)cc(N[C@H](c3cn(C45CC(C4)C5)nn3)c3ccc(F)c4ncccc34)cc12)C(F)(F)F` [Example 816, (S)-6-(((1-(bicyclo[1.1.1]pentan-1-yl)-1H-1,2,3-triazol-4-yl)(8-fluoroquinolin-5-yl)methyl)amino)-4-((3,3,3-trifluoro-2,2-dimethylpropyl)amino)quinoline-3,8-dicarbonitrile]: the EC50 under setting [3] was 23 nM.

In general, EC50 refers to the concentration giving half of the maximal effect.
